## Ab-14 light chain CDR variants: yeast mating affinities

Antigen: PDVDLGDISGINAS, a 14-residue peptide of the SARS-CoV-2 spike HR2 region.

Parent scFv Ab-14: VH joined to VL by three GGGGS repeats. Changes lie in the light chain CDRs alone.
VH: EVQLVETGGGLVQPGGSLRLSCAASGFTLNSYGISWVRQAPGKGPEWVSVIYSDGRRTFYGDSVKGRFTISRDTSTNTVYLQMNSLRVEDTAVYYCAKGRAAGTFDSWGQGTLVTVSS
VL: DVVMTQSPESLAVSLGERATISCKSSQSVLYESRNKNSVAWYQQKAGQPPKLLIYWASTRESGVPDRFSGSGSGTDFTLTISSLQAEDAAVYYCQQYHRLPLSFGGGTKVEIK

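Phage display of a naive human antibody library on the peptide gave the parent. The library (AAYL50) carries one to three amino acid substitutions per variant, with no insertions or deletions. The assay is AlphaSeq: two haploid yeast populations carry antibody and antigen on their surface. Mating (16 h, 30 °C) was followed by selection of diploids and sequencing of their barcodes. The ratio of observed to expected reads was calibrated, replicate by replicate, on BCL2-family standards whose Kd was known from biolayer interferometry. There are three technical replicates.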

Variants are written as CDR1, CDR2 and CDR3 of the light chain (limits as in the source). Parent: KSSQSVLYESRNKNSVA, WASTRES, QQYHRLPLS.
Scale: log10 of Kd in nM, estimated from mating counts; low values are strong binders.
Replicates are averaged; those with no signal do not enter the mean.
A pair that was not seen in that replicate is written "ND"; this usually means weak binding, but a binder can also be missed.
For reference, the parent read 0.65 as the reference entry and 1.68 as a member of this library.
As a blank, each scFv also met three strains without target: over library AAYL50, 18% of these pairings were detected, typically at 4.19 and seldom below 2.99. For each scFv, signals with the empty controls are counted beside the result, with their mean in brackets.

| # | CDR-L1 | CDR-L2 | CDR-L3 | log10 Kd (nM) by replicate | mean log10 Kd (nM) | control signals |
|---|---|---|---|---|---|---|
| 1 | KSSQSVLYESRNKNLVA | MALTRES | QQYHRLPLS | 3.82 ND ND | 3.82 | 0/9 |
| 2 | TSSQSVLYESKNKNSVH | WASTRES | QQYHRLPLS | ND 3.30 3.90 | 3.60 | 3/9 (3.59) |
| 3 | KSSQSVLYESRNKMSVA | WPSTRES | QQTHRLPLS | ND 4.89 ND | 4.89 | 1/9 (4.12) |
| 4 | KSSQSVLYESRNKNSVA | WASTAES | QQEHRKPLS | ND ND ND | ND | 0/9 |
| 5 | KSSTSVLYESRNKNSVA | WLSTRES | QYYHRLPLS | 6.11 4.72 6.28 | 5.70 | 6/9 (4.14) |
| 6 | PSSQSVLYESRNKNSVA | WASYREG | QQYHRLPLS | ND ND ND | ND | 0/9 |
| 7 | KSSQPVLMESRNKNFVA | WASTRES | QQYHRLPLS | 2.92 2.74 2.55 | 2.74 | 2/9 (4.22) |
| 8 | KSSQSVLYESRNKNSVA | WASTRES | QQRHRGPLS | ND ND ND | ND | 2/9 (3.65) |
| 9 | VSSQSVLYESRNKNSVA | WASTRES | QQYHRLPHS | 4.29 ND 4.20 | 4.25 | 2/9 (3.50) |
| 10 | KSKRSVGYESRNKNSVA | WASTRES | QQYHRLPLS | 1.19 1.41 1.28 | 1.29 | 0/9 |
| 11 | KSSQRVVYESRNKNSVA | WASTRES | QQYHRLRLS | ND ND ND | ND | 0/9 |
| 12 | KSSQSVLYHSRNKNSVA | WASLRES | QQWHRLPLS | ND ND ND | ND | 1/9 (3.02) |
| 13 | LSSQSVLYESRNKNSVN | WASTRES | QQYHALPLS | ND ND ND | ND | 1/9 (3.00) |
| 14 | KSSQSVLYRSRNKNSVA | WASTRES | QPYHRLPLS | ND 4.89 6.18 | 5.53 | 4/9 (4.88) |
| 15 | KQSQSVLWESRNKKSVA | WASTRES | QQYHRLPLS | 0.93 1.40 1.84 | 1.39 | 1/9 (4.06) |
| 16 | HSSQSVLYECRNKNSSA | WASTRES | QQYHRLPLS | 4.21 4.83 5.74 | 4.93 | 4/9 (4.34) |
| 17 | VSSQSVLYESRNKNSCA | WASTRER | QQYHRLPLS | ND ND 6.00 | 6.00 | 0/9 |
| 18 | KSSQSVLYEYRNKNSVA | WASTRET | QQYHRLPWS | 1.71 1.88 1.90 | 1.83 | 2/9 (4.29) |
| 19 | KSSQSVLLESRNKNEVA | WAYTRES | QQYHRLPLS | 4.40 ND ND | 4.40 | 0/9 |
| 20 | KSHQSVLYESRNKNKVA | WASTRES | PQYHRLPLS | ND ND ND | ND | 0/9 |
| 21 | KSSMSVLYESRNKDSVA | WASTRES | QQYYRLPLS | 0.59 0.90 0.75 | 0.75 | 1/9 (3.29) |
| 22 | KSSQSVLYESRNKNSVA | WASTRES | QQYYSLPLS | 0.89 1.22 1.15 | 1.08 | 1/9 (3.94) |
| 23 | KSSQSVLYGSRNKNSVA | WASTEES | QQAHRLPLS | ND ND ND | ND | 3/9 (4.62) |
| 24 | KSSQSVLYESRNKNSNA | WASTQES | QQYHQLPLS | ND ND ND | ND | 0/9 |
| 25 | KSSQSVLGISRNKNSVA | WASTRES | QQNHRLPLS | 0.80 0.78 0.87 | 0.82 | 0/9 |
| 26 | KSSQSVLYESRNKMSVA | WASTEEP | QQYHRLPLS | ND ND ND | ND | 0/9 |
| 27 | KSSQSSLYESRNKPSVA | SASTRES | QQYHRLPLS | 0.14 0.42 0.29 | 0.28 | 5/9 (4.66) |
| 28 | KSSQSVLYESRKKNSVA | WAPTRES | QQYHRLPLS | 4.45 3.57 5.72 | 4.58 | 5/9 (5.03) |
| 29 | NSSQSVLYESRNKGSVA | WASTRES | QQYHRLSLS | 2.81 2.26 2.74 | 2.60 | 3/9 (4.27) |
| 30 | KSSQSVLYESRNKNSVA | WASTNES | QQYHRLHLS | ND ND ND | ND | 0/9 |

Extract of 3 entries:

| CDR-L1 | CDR-L2 | CDR-L3 | log10 Kd (nM) by replicate | mean log10 Kd (nM) | control signals |
|---|---|---|---|---|---|
| KQSQSVLWESRNKKSVA | WASTRES | QQYHRLPLS | 0.93 1.40 1.84 | 1.39 | 1/9 (4.06) |
| KSKRSVGYESRNKNSVA | WASTRES | QQYHRLPLS | 1.19 1.41 1.28 | 1.29 | 0/9 |
| KSSQSVLYGSRNKNSVA | WASTEES | QQAHRLPLS | ND ND ND | ND | 3/9 (4.62) |

Values reported by Engelhart et al. 2022, doi:10.1038/s41597-022-01779-4 (FLAb copy).